For the test, the target named is SARS-CoV-2 nsp13 helicase (Severe acute respiratory syndrome coronavirus 2, UniProt P0DTD1). The test is classed as biochemical. The note with it: read-out: IC50 No detergent.

Broadly, the IC50 is the concentration needed to halve the response being measured. For `O=C(Nc1cccc(C(=O)Nc2ccc(S(=O)(=O)[O-])c3cc(S(=O)(=O)[O-])cc(S(=O)(=O)[O-])c23)c1)Nc1cccc(C(=O)Nc2ccc(S(=O)(=O)[O-])c3cc(S(=O)(=O)[O-])cc(S(=O)(=O)[O-])c23)c1.[Na+].[Na+].[Na+].[Na+].[Na+].[Na+]` [NF 023], the IC50 is 1100 nM.
